Data reported in paper PMC2831097, “Inhibition of L-Arginine Metabolizing Enzymes by L-Arginine-Derived Advanced Glycation End Products” (Journal of Clinical Biochemistry and Nutrition, 2010).

Target: T1, recombinant eNOS (Bos taurus, UniProt P29473)
T1 construct: purchased Sigma Chemicals (St. Louis, MO)
Experiment: NOS activity assay, conversion of L-[14C(U)]-arginine to L-[14C(U)]-citrulline, eNOS
Format: biochemical, bovine
Details: 50 µM L-arginine, 30 min at 37°C, pH 7.4; means ± SD (n = 4)
Excerpt: L-Arginine, ADMA, N^G-hydroxy-L-arginine (NOHA), nicotinamide adenine dinucleotide phosphate reduced form (NADPH), flavin adenine dinucleotide (FAD), flavin mononucleotide (FMN), (6R)-5,6,7,8-tetrahydrobiopterin (BH4), recombinant eNOS (from bovine), iNOS (from mouse macrophage), Dowex® AG50W-X8 cation-exchange resin (mesh size, 100–200) were all purchased from Sigma Chemicals (St. Louis, MO). Ultima Gold XR scintillation liquid was from PerkinElmer (Shelton, CA). Recombinant nNOS (from rat) and N^G-hydroxy-nor-arginine (nor-NOHA) were obtained from Cayman Chemicals. Arginase (from bovine liver) was from Alexis Biochemicals (Lausen, Switzerland). […] All other chemicals were obtained from Wako Pure Chemical Industries, Osaka, Japan.
The NOS activities were determined by monitoring the conversion of L-[^14C(U)]-arginine (Moravek, Brea, CA) to L-[^14C(U)]-citrulline as previously described. […] L-[^14C(U)]-Citrulline was eluted twice with 1 ml of distilled water, and the eluted fractions mixed with 10 ml of cocktail (Ultima Gold XR) were quantified using a liquid scintillation counter. […]

CNC(=N)NCCC[C@H](N)C(=O)O [L-NMMA, N^G-monomethyl-L-arginine, reference compound]
IC50: 5 ± 1 µM
